Test results published in patent US5532227A, “Tetracyclines including non-antimicrobial chemically-modified tetracyclines inhibit excessive glycosylation of different types of collagen and other proteins during diabetes” (The Research Foundation of State University of New York, priority 1994, dated 1996).

Conditions: 5 mg daily oral gavage, 21 days; untreated diabetics lost weight

Which Body weight does the source give for tetracycline pyrazole [CMT-5] here?
The Body weight was “maintained its body weight”.
